In article PMC9779714, “Enhanced Therapeutic Effect of Optimized Melittin-dKLA, a Peptide Agent Targeting M2-like Tumor-Associated Macrophages in Triple-Negative Breast Cancer” (International Journal of Molecular Sciences, 2022):

Tests used:
[1] = test system: THP-1-derived M2 macrophages; assay: MTS assay in M2 macrophages; format: cell-based, human; settings: 0-20 μM, 20 h at 37 °C in serum-free RPMI, OD 490 nm, two independent experiments
Description: (§1) The optimized peptide fragment melittin 8-26 was used as a vehicle for targeting M2 macrophages, and the pro-apoptotic peptide d(KLAKLAK)2 (dKLA) was conjugated to the C-terminus of the peptide to test its cytotoxic effects on M2 macrophages. […] Next, to ascertain the loss of hemolytic effects of the optimized peptide, melittin-dKLA 8-26 was tested using an in vitro hemolysis assay. […] However, there were no hemolytic effects of melittin-dKLA 8-26 at the tested concentration of up to 40 μM (Figure 4B). […] Additionally, peptide drugs have the disadvantage of being easily decomposed in the body. Peptide drugs are stabilized using various methods, such as PEGylation. […]
(§2) Figure 4 Characterization of the optimized hybrid peptide drug, PEG-melittin-dKLA 8-26. […] The optical density was measured at 490 nm. […] The optical density of hemoglobin released in the supernatant was measured at 450 nm. […]
(§3) THP-1 cells were seeded at a density of 2 × 10^4 cells/well in a 96-well plate and polarized into M0, M1, and M2 macrophages for 24 h in the same RPMI medium composition and cytokine concentration as described for macrophage polarization. […] The absorbance was measured at 490 nm using a microplate reader (Molecular Devices, San Jose, CA, USA). All data are expressed as the mean ± SEM of two independent experiments.

[2] = test system: red blood cells; assay: Hemolysis assay on mouse red blood cells; format: cell-based, BALB/c mouse; settings: mouse red blood cells in PBS, peptides 1-40 μM, 4 h at 37 °C, OD 450 nm of supernatant, 2% Triton X-100 positive control, mean of n = 3
Description: Melittin has been well-documented to have strong hemolytic effects. To diminish such adverse effects, several truncated melittin were synthesized and analyzed in vitro (Figure 2A). Mouse blood cells were treated with varying concentrations of peptides for 4 h, and the optical density was measured using a microplate reader.
Figure 2 Melittin fragments have fewer hemolytic effects than melittin. (A) Amino acid sequence of melittin and melittin-truncated peptide. (B) Hemolysis of red blood cells treated with FITC-conjugated melittin or FITC-conjugated melittin fragments at concentrations ranging from 1 μM to 40 μM and incubated at 37 °C for 4 h. […] The optical density of hemoglobin released supernatant was measured at 450 nm. […]
as §2
Blood was collected from each BALB/c mouse. […] The optical density of the samples was measured at 450 nm using a microplate reader (Molecular Devices). The percentage of hemolysis was calculated using the following equation: hemolysis (%) = (OD450 nm sample − OD450 nm negative control)/(OD450 nm positive control − OD450 nm negative control) × 100%. All data are expressed as the mean ± SEM of three independent experiments.

[3] = test system: THP-1-derived M0 macrophages; assay: MTS assay in M0 macrophages; format: cell-based, human; settings: 0-20 μM, 20 h at 37 °C in serum-free RPMI, OD 490 nm, two independent experiments
Description: as §1, §2, §3

[4] = test system: THP-1-derived M1 macrophages; assay: MTS assay in M1 macrophages; format: cell-based, human; settings: 0-20 μM, 20 h at 37 °C in serum-free RPMI, OD 490 nm, two independent experiments
Description: as §1, §2, §3

| SMILES | IC50 [1] | concentration at which hemolysis was observed [2] | IC50 [3] | IC50 [4] |
| --- | --- | --- | --- | --- |
| CC[C@H](C)[C@H](NC(=O)[C@H](CC(C)C)NC(=O)[C@H](C)NC(=O)[C@@H]1CCCN1C(=O)[C@H](CC(C)C)NC(=O)CNC(=O)[C@@H](NC(=O)[C@@H](NC(=O)[C@H](CC(C)C)NC(=O)[C@@H](N)C(C)C)[C@@H](C)O)[C@@H](C)O)C(=O)N[C@@H](CO)C(=O)N[C@@H](Cc1c[nH]c2ccccc12)C(=O)N[C@H](C(=O)N[C@@H](CCCCN)C(=O)N[C@@H](CCCNC(=N)N)C(=O)N[C@@H](CCCCN)C(=O)N[C@@H](CCCNC(=N)N)C(=O)N[C@@H](CCC(N)=O)C(=O)N[C@@H](CCC(N)=O)C(=O)NCC(=O)NCC(=O)NCC(=O)NCC(=O)N[C@@H](CO)C(=O)N[C@H](CCCCN)C(=O)N[C@H](CC(C)C)C(=O)N[C@H](C)C(=O)N[C@H](CCCCN)C(=O)N[C@H](CC(C)C)C(=O)N[C@H](C)C(=O)N[C@H](CCCCN)C(=O)N[C@H](CCCCN)C(=O)N[C@H](CC(C)C)C(=O)N[C@H](C)C(=O)N[C@H](CCCCN)C(=O)N[C@H](CC(C)C)C(=O)N[C@H](C)C(=O)N[C@H](CCCCN)C(=O)O)[C@@H](C)CC [melittin-dKLA 8-26] | 1.45 µM | > 40 µM | 4.12 µM | 2.19 µM |
| CC[C@H](C)[C@H](NC(=O)CN)C(=O)NCC(=O)N[C@@H](C)C(=O)N[C@H](C(=O)N[C@@H](CC(C)C)C(=O)N[C@@H](CCCCN)C(=O)N[C@H](C(=O)N[C@@H](CC(C)C)C(=O)N[C@H](C(=O)N[C@H](C(=O)NCC(=O)N[C@@H](CC(C)C)C(=O)N1CCC[C@H]1C(=O)N[C@@H](C)C(=O)N[C@@H](CC(C)C)C(=O)N[C@H](C(=O)N[C@@H](CO)C(=O)N[C@@H](Cc1c[nH]c2ccccc12)C(=O)N[C@H](C(=O)N[C@@H](CCCCN)C(=O)N[C@@H](CCCNC(=N)N)C(=O)N[C@@H](CCCCN)C(=O)N[C@@H](CCCNC(=N)N)C(=O)N[C@@H](CCC(N)=O)C(=O)N[C@@H](CCC(N)=O)C(=O)NCC(=O)NCC(=O)NCC(=O)NCC(=O)N[C@@H](CO)C(=O)N[C@H](CCCCN)C(=O)N[C@H](CC(C)C)C(=O)N[C@H](C)C(=O)N[C@H](CCCCN)C(=O)N[C@H](CC(C)C)C(=O)N[C@H](C)C(=O)N[C@H](CCCCN)C(=O)N[C@H](CCCCN)C(=O)N[C@H](CC(C)C)C(=O)N[C@H](C)C(=O)N[C@H](CCCCN)C(=O)N[C@H](CC(C)C)C(=O)N[C@H](C)C(=O)N[C@H](CCCCN)C(=O)O)[C@@H](C)CC)[C@@H](C)CC)[C@@H](C)O)[C@@H](C)O)C(C)C)C(C)C [melittin-dKLA] | 0.415 µM | 5 µM | 1.23 µM | 0.737 µM |
